Laboratory results reported in US4952607A, “Copper complex for treating cancer” (priority 1986, dated 1990).

Test system: Ehrlich carcinoma cells
Experiment: Tumor growth, metastasis and survival of CBA mice implanted with Ehrlich carcinoma cells
Conditions: Charts V and VI

Cu(II)(salicylate)2
survival of the host organisms: prolonged survival of the host organisms
